“And” between values parts separate entries of the source, which are not always exact repeats. Identical values can stand only once.
How the values were obtained:
rat/mouse MT1-MMP = rat/mouse MT1-MMP (Mus musculus, UniProt P53690); assay: Binding affinity to rat/mouse MT1-MMP, measured as previously described; conditions: Binding Affinity (Ki in nM) rat/mouse ki, bicycle peptide-drug conjugates, two values given
Procedure: Binding affinity was measured using competition assays using Fluorescence Polarisation (anisotropy).
Due to their high affinities to the MT1-MMP Hemopexin domain (PEX), the fluoresceinated derivatives herein can be used for competition experiments (using FP for detection). Here, a pre-formed complex of PEX with the fluorescent PEX-binding tracer is titrated with free, non-fluoresceinated bicyclic peptide. Since all 17-69-based peptides are expected to bind at the same site, the titrant will displace the fluorescent tracer from PEX. Dissociation of the complex can be measured quantitatively, and the Kd of the competitor (titrant) to the target protein determined. The advantage of the competition method is that the affinities of non-fluoresceinated bicyclic peptides can be determined accurately and rapidly. […]
The raw data is fit to the analytical solution of the cubic equation that describes the equilibria between fluorescent tracer, titrant, and binding protein. The fit requires the value of the affinity of fluorescent tracer to the target protein, which can be determined separately by direct binding FP experiments (see previous section). […]
The in vitro binding affinities of the bicycle peptide-drug conjugates prepared above were measured for MT1-MMP as previously described herein.

MT1-MMP hemopexin domain = target: T1, MT1-MMP hemopexin domain (Homo sapiens, UniProt P50281); assay: Fluorescence polarisation competition binding assay; conditions: Binding Affinity (Ki in nM) Human ki, bicycle peptide-drug conjugates, two values given
T1 construct: residues Cys319-Gly511 from the human gene; His6 (N); made in house; host or cells: HEK293 cells (transient, pEXPR-IBA42 vector)
Text: The MT1-MMP hemopexin-like repeats (also known as the MT1-MMP hemopexin domain), residues Cys319-Gly511 from the human gene, were transiently expressed in HEK293 cells as secreted N-terminally His6-tagged soluble protein, using the pEXPR-IBA42 (IBA) expression vector. Following expression, the protein was purified by Nickel-NTA affinity chromatography followed by gel filtration, and purity was checked by SDS-PAGE. Batch to batch variability was also monitored by fluorescence thermal shift experiments in the presence/absence of a hemopexin domain binding bicycle.
Binding affinity was measured using competition assays using Fluorescence Polarisation (anisotropy). […]
Here, a pre-formed complex of PEX with the fluorescent PEX-binding tracer is titrated with free, non-fluoresceinated bicyclic peptide. […] Dissociation of the complex can be measured quantitatively, and the Kd of the competitor (titrant) to the target protein determined. The advantage of the competition method is that the affinities of non-fluoresceinated bicyclic peptides can be determined accurately and rapidly.
Subsequently, the non-fluorescent competitor bicyclic peptide (usually just the bicycle core sequence) is titrated, such that it displaces the fluorescent tracer from the target protein. The displacement of the tracer is measured and associated with a drop in fluorescence polarisation. […]

SMILES: CC[C@H](C)[C@@H]([C@@H](CC(=O)N1CCC[C@H]1[C@H](OC)[C@@H](C)C(=O)N[C@H](C)[C@@H](O)c1ccccc1)OC)N(C)C(=O)[C@@H](NC(=O)[C@H](C(C)C)N(C)C(=O)OCc1ccc(NC(=O)[C@H](CCCNC(N)=O)NC(=O)[C@@H](NC(=O)Cn2cc(CCC(=O)NCCC(=O)N(C)CC(=O)N(C)CC(=O)N(C)CC(=O)N(C)CC(=O)N(C)CC(=O)N(C)CC(=O)N(C)CC(=O)N(C)CC(=O)N(C)CC(=O)N(C)CC(=O)N[C@@H](C)C(=O)N[C@H]3CN(C)Cc4cc5cc(c4)CN(C)C[C@@H](C(N)=O)NC(=O)[C@H](C(C)(C)C)NC(=O)[C@H](CC(=O)O)NC(=O)[C@H](Cc4ccc(O)cc4)NC(=O)[C@H](Cc4ccccc4)NC(=O)[C@H](CC(=O)O)NC(=O)[C@H](CCC(=O)O)NC(=O)[C@H](CSC5)NC(=O)[C@@H](C)NC(=O)[C@H](Cc4cccc5ccccc45)NC(=O)[C@H](CCC(=O)O)NC(=O)[C@H](CC(N)=O)NC(=O)[C@@H](C)NC3=O)nn2)C(C)C)cc1)C(C)C [BT17BDC-61]
- Ki (rat/mouse MT1-MMP): 1.8 nM and 1.6 nM
- Ki (MT1-MMP hemopexin domain): 3.2 nM and 2.9 nM
